HCMV NEC inh = inhibitors of HCMV UL50-UL53 interaction, biochemical, HTRF; HCMV UL50-UL53 nuclear egress complex (human cytomegalovirus); 190,000 tested, 0.15% active; normalized percent inhibition; inhibition, % (no concentration beside the values); AID 1918969, 2023; in the data active means inhibition above about 27%, passing the limit was not always enough
GIV Gai3 FP = inhibitors of GIV GBA-motif binding to rat Galpha-i3; P08753; Galpha-i3/FITC-GIV peptide fluorescence polarization, 90 min; hits give low values; scaled: aluminum fluoride 0%, vehicle 100%; percent of control (FP), % (test concentration not listed); 0.42% of 210,000 active; AID 1224905;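 active = replicate mean at 85% of control or lower, very high polarization wells dropped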;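 also: wells of about 15 µL received 100 nL stock; the first replicate is given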
GIV-Gai FP conf = inhibitors of GIV peptide binding to Galpha-i3, confirmation, biochemical, fluorescence polarization, FITC-GIV peptide, rat Galphai3. shares compounds with GIV Gai3 FP. stronger effect = lower value. fluorescence polarization, mP at 100 µM. 580 tested, 38% active;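 active means inhibition score of 15 or more, meaning 100 minus mean polarization as percent of control over three replicates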
GIV Gai AS conf = inhibitors of GIV binding to Galpha-i3, confirmation, orthogonal assay for GIV-Galpha-i inhibitor project, biochemical, AlphaScreen, His-GIV, GST-Galphai3; purified proteins, 90 min; stronger effect = lower value; 580 tested, 39% active; shares compounds with GIV Gai3 FP; AlphaScreen counts at 100 µM;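 active means inhibition score at or above a set limit, where the score is 100 minus the three-replicate mean percent of control signal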
A number is an active result; i = inactive; nt = no result given; ! = a repeat was not active. An excerpt weighted towards active compounds, which were near 0.46% of everything screened.

SMILES	HCMV NEC inh	GIV Gai3 FP	GIV-Gai FP conf	GIV Gai AS conf
CC1Cc2cc(C(=O)COC(=O)c3n[nH]c(=O)c4ccccc34)ccc2N1S(C)(=O)=O (stereo unspecified)	i	nt	nt	nt
O=C(c1ccc2c(c1)N(CC(=O)N1CCCc3ccccc31)C(=O)C1CCCCN21)N1CCCC1 (stereo unspecified)	i	i	nt	nt
CCOC(=O)C1=C(N)Oc2ccc3ccccc3c2C1c1ccccc1OC (stereo unspecified)	nt	i	nt	nt
Cc1ccc2c(c1C)-n1cccc1C1(CCN(C(=O)Cc3ccc(Cl)cc3)CC1)N2	i	i	nt	nt
O=C(NCCn1ccc2ccccc21)c1ccc(F)cc1	nt	60.3	i	i
Cc1ccc(C(=O)NCCn2ccc3ccccc32)cc1	nt	i	nt	nt
CC(=O)Oc1cccc(-c2nc(C#N)c(N)o2)c1	i	nt	nt	nt
Cn1c(=O)c(C(=O)CS(=O)(=O)O)c2c3c(cccc31)C(=O)c1ccccc1-2	nt	55.3	22.4	7785
Cn1c(=O)c(-c2ccccc2)c2c3c(cccc31)C(=O)c1ccccc1-2	nt	i	nt	nt
COc1cccc(C2=CC(c3ccccc3F)n3c(nc4ccccc43)N2)c1 (stereo unspecified)	nt	i	nt	nt
COc1ccccc1C1C=C(c2cccnc2)Nc2nc3ccccc3n21 (stereo unspecified)	i	69.4	48.4	i
CCCCn1cnc2c1c(=O)n(Cc1nc3ccccc3s1)c(=O)n2CCC	i	nt	nt	nt
COCCNc1nc(SCc2cc(=O)n3cc(Cl)ccc3n2)nc2ccccc12	nt	i	nt	nt
CC(Sc1ccc(S(=O)(=O)N2CCOCC2)cn1)C(N)=O (stereo unspecified)	i	nt	nt	nt
CC(=O)Nc1cnn(-c2ccccc2)c(=O)c1Cl	i	i	nt	nt
O=C(O)c1ccc(-n2ncc(Cl)c(Cl)c2=O)cc1	i	77.9!	i	i
O=C1CN(c2ccccc2)C(=O)N1	nt	i	nt	nt
Nc1c2c(nn1-c1ccccc1)CC(=O)NC2=O	70.6	59.8	47.2	31739
CCOC(=O)c1c(C)oc2ccc(N(C(=O)c3ccc(C)cc3)S(=O)(=O)c3ccc(Br)cc3)cc12	nt	i	nt	nt
Cc1nc(N=Nc2cc(S(=O)(=O)O)c3cc([N+](=O)[O-])cc(S(=O)(=O)O)c3c2)c(COP(=O)(O)O)c(C=O)c1O	i	17.4	53.3	3265
O=C1NC(=O)C(=Cc2cc(Br)ccc2OCc2ccc(Cl)cc2)C(=O)N1	50.3	78.5	i	i
Cc1ccc(COc2ccc(Br)cc2C=C2C(=O)NC(=S)NC2=O)cc1	i	i	nt	nt
CCc1ccc(-c2[nH]ncc2CN2CCCC2c2cc(C(C)C)on2)cc1 (stereo unspecified)	nt	i	nt	nt
NNC(=O)c1c(NC(=O)c2ccccc2)sc2c1CCC2	i	i	nt	nt
CS(=O)(=O)Nc1nc2n(n1)C(c1ccccc1)C=C(c1ccccc1)N2 (stereo unspecified)	nt	53.3	44.2	i
SMILES	HCMV NEC inh	GIV Gai3 FP	GIV-Gai FP conf	GIV Gai AS conf
Cc1ccc(C2C=C(c3ccccc3)Nc3nc(NS(=O)(=O)c4ccc(C)cc4)nn32)cc1 (stereo unspecified)	nt	i	nt	nt
CC1(C)CC(=O)N(CC(=O)Nc2ccc3c(c2)OCCO3)c2ccccc2S1(=O)=O	i	i	nt	nt
COCC(=O)Nc1ccc2nc3c(c(Nc4ccc(OC)c(OC)c4)c2c1)CCCC3	i	i	nt	nt
Cc1nccc2[nH]c(=O)c(C(=O)NC3CCCc4ccccc43)cc12 (stereo unspecified)	i	i	nt	nt
CCCCCCNC(=O)c1c[nH]c2ccc(S(=O)(=O)N(C)c3ccc(Br)cc3)cc2c1=O	nt	i	nt	nt
CN(c1ccc(Br)cc1)S(=O)(=O)c1ccc2[nH]cc(C(=O)NCc3ccccn3)c(=O)c2c1	nt	64.0	47.6	i
COc1ccc2c(Sc3ccccc3)c(C(=O)NCCN3CCN(C)CC3)[nH]c2c1	i	i	nt	nt
O=C(OCC(=O)N1CCCCC1)c1c(Cl)cccc1Cl	i	nt	nt	nt
O=C(O)c1ccc(CSc2n[nH]c(-c3ccco3)n2)cc1	i	78.4	57.5	2493
CCOC(=O)CSc1n[nH]c(-c2ccco2)n1	nt	i	nt	nt
CC1(C)C=C2C(=NN(c3ccccc3)C(N)=C2C#N)CO1	i	82.8	i	i
CCC1(C)Cc2c(C#N)c(N)n(-c3ccccc3)c(=O)c2CO1 (stereo unspecified)	i	nt	nt	nt
C=CCn1c(SCC(=O)OC)nc2c(-c3ccccc3)cn(C)c2c1=O	nt	i	nt	nt
C/C(=N\O)c1cc2ccc(O)cc2oc1=O	i	nt	nt	nt
Cc1cc(C(F)(F)F)c(C#N)c(SCC(=O)C23CC4CC(CC(C4)C2)C3)n1	nt	i	nt	nt
CC1=CC(=C2C(=O)N(c3ccccc3)N=C2C)C=C(C)N1Cc1ccco1	i	nt	nt	nt
CC1=CC(=C2C(=O)NC(=S)NC2=O)C=C(C)N1Cc1ccco1	i	72.9	47.7	2400
Cc1ccc2onc(CNC(=O)Nc3cccc(C(F)(F)F)c3)c2c1	i	i	nt	nt
CC(C(=O)N1CCCCC1)N(c1ccccc1)S(C)(=O)=O (stereo unspecified)	i	i	nt	nt
CCN(CC)C(=O)/C=C/c1ccc2c(c1)OCO2	nt	i	nt	nt
CC(C)(O)C(=O)/C=C/c1ccc2c(c1)OCO2	i	83.6	i	27857
N#C/C(=C\Nc1ccc(OC(F)(F)F)cc1)C(=O)c1ccco1	i	i	nt	nt
Cn1c(=O)c2nc3ccc(N=Cc4c(O)n(Cc5ccccc5)c(=O)[nH]c4=O)cc3nc2n(C)c1=O	i	i	nt	nt
CCOC(=O)CC(=O)CSc1nc2c(c(-c3cccs3)c1C#N)CCC2	nt	i	i	i
CCOC(=O)CC(=O)CSc1nc(-c2cccs2)cc(-c2cccs2)c1C#N	nt	i	nt	nt
SMILES	HCMV NEC inh	GIV Gai3 FP	GIV-Gai FP conf	GIV Gai AS conf
COc1ccc(-c2ccc3cc(Cl)ccc3n2)c(OC)c1	i	nt	nt	nt
CCN(CC)CCCC(C)Nc1c2ccc(Cl)cc2nc2ccc(OC)cc12 (stereo unspecified)	i	43.6	41.1	i
CCOc1cc(C(c2c(C)[nH]n(-c3ccccc3)c2=O)c2c(C)[nH]n(-c3ccccc3)c2=O)ccc1O	i	i	nt	nt
Cc1[nH]n(-c2ccccc2)c(=O)c1C(c1ccc(F)cc1)c1c(C)[nH]n(-c2ccccc2)c1=O	nt	72.0	i	24882
Cc1[nH]n(-c2ccccc2)c(=O)c1C(c1cc(Cl)ccc1O)c1c(C)[nH]n(-c2ccccc2)c1=O	i	i	nt	nt
COc1ccc(C(c2c(C)[nH]n(-c3ccccc3)c2=O)c2c(C)[nH]n(-c3ccccc3)c2=O)cc1	nt	i	nt	nt
Cc1ccc(C(c2c(C)[nH]n(-c3ccccc3)c2=O)c2c(C)[nH]n(-c3ccccc3)c2=O)cc1	nt	i	nt	nt
COc1ccc(C(c2c(C)[nH]n(-c3ccccc3)c2=O)c2c(C)[nH]n(-c3ccccc3)c2=O)cc1OC	nt	76.3	44.4	4694
Cc1[nH]n(-c2ccccc2)c(=O)c1C(c1ccccc1O)c1c(C)[nH]n(-c2ccccc2)c1=O	nt	67.0	i	17967
CCOc1cc(C(c2c(C)[nH]n(-c3ccccc3)c2=O)c2c(C)[nH]n(-c3ccccc3)c2=O)ccc1OCc1ccc(Cl)cc1	nt	80.6	52.4	i
Cc1cc(-c2nn3c(-c4cccc(F)c4)nnc3s2)c2ccccc2n1	i	i	nt	nt

Assay outcomes: PubChem, ICCB-Longwood Screening Facility, Harvard Medical School
